# Rows were chosen to be rich in hits. Some 1.7% of all compounds tested hit in one or more screens of this group.
# GLP1R inv ag = GLP-1 receptor (human) inverse agonism; HEK293 GLP-1R CRE-luciferase, luminescence, 24 h; GLP-1R form is constitutively active; P43220; 410,000 tested, 1.6% active; Potency, µM (highest dose often 38.3 µM), for the others: at the highest dose activity change, negative = inhibition, hits mostly inhibitors; further: potency means the concentration at half of the fitted maximal effect; on the % scale 0 is the no-effect control and ±100 the full control effect; nearly all actives have a fitted effect of over 55% in size
#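 HEK293 cells stably co-expressing a cAMP-responsive luciferase reporter and constitutively active GLP-1R were seeded, incubated 12 h, then exposed to compounds for 24 h at 37 C. Luminescence was read 12 min after detection reagent; inverse agonists lower signal.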
# Pin1 inhibitor = inhibitors of human Pin1 | AID 504891 | Pin1 FP peptide displacement, HiFluor488, 10 min | 390,000 tested, 0.009% active | Potency, µM (series often up to 115 µM), without a hit: at the top dose activity, negative = inhibition, actives largely listed as inhibitors | Q13526; active means well fitted inhibition curve with a large enough effect in the polarisation, with a control signal flat, not every such curve was filed as active; inconclusive means small, poorly fitted or top-dose-only effect, or effect the other way, or a change in a side signal; inactive means no such curve, though single readings can be large or run the other way; the % refers to the polarisation; further: potency means the concentration at half of the fitted maximal effect; on the % scale 0 is the no-effect control and ±100 the full control effect
# miR-21 reporter = miR-21 reporter, rising signal | AID 2288 | HeLa miR-21 FLuc reporter, luciferase, 48 h | 340,000 tested, under 10 active | Potency, µM (doses to about 38.3 µM), for inactives: at the top dose reporter change, positive = more light; active = well fitted rising curve with a large enough effect; inconclusive = small, poorly fitted or top-dose-only effect; inactive = no such curve, though single readings can be large or run the other way;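 note: % of control where 0% means no effect; miR-21 action dims this reporter so a rising signal means less miR-21 action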
#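 HeLa cells stably expressing CMV-driven firefly luciferase with a downstream miR-21 binding sequence, endogenously expressing miR-21, were treated with titrations (up to about 40uM final) for 48 hours at 37 degree Celsius. Luciferase luminescence was read after lysis.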
# GLP-1R agonist = activates the human GLP-1 receptor; P43220; HEK293 GLP-1R CRE-luciferase, luminescence, 4-6 h; cells express a hypersensitive GLP-1R form; Potency, µM (series often up to 45.6 µM), without a hit: at the top dose activation, usual class: activators; 380,000 tested, 0.007% active; AID 624172; further: potency means the concentration at half of the fitted maximal effect; % of control where 0% means no effect
# GLP1R cytotox = cytotoxic in the GLP-1 receptor inverse agonist counter-screen; Potency, µM (doses to about 38.3 µM), without a hit: at the highest dose activity change, negative = inhibition, most hits filed as inhibitors; HEK293 cAMP-luciferase reporter cells, luminescence, 24 h; 410,000 tested, 0.13% active; AID 624418;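 further: loss of luciferase light is scored as toxicity; potency means the concentration at half of the fitted maximal effect; on the % scale 0 is the no-effect control and ±100 the full control effect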
#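 Compound-treated cells are incubated 24 hr at 37 deg C under 5% CO2 after a 12 hour attachment period, then luciferase detection reagent is added and luminescence is measured following 12 min at room temperature; lowered signal indicates toxicity.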
# PTHR1 agonist = agonists of human PTHR1 parathyroid hormone receptor; 410,000 tested, 0.075% active; HEK293 GP2 PTHR1 cells, GloSensor cAMP luminescence, 1 h; Q03431; Potency, µM (top dose mostly 115 µM), without a hit: at the highest dose activation, hits mostly activators; further: potency means the concentration at half of the fitted maximal effect; nearly all actives have a fitted effect of over 55% in size
#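 HEK-293-derived GP2 cells expressing PTHR1 and a GloSensor cAMP reporter, 3,000/well, plated overnight, given luciferin plus IBMX (each 0.5 mM as added) for 1 h at 37 °C, then compound for 1 h at 37 °C. Luminescence was read after 15 min at room temperature.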
# Active calls of the source: *; i = inactive; ? = inconclusive; / = not tested or not shown; [ ] = another dose, or the depositor's remark. Unless noted, the call rests on the fitted dose curve; in most records, active means well fitted curve in the direction sought with a large enough effect; inconclusive means small, poorly fitted or top-dose-only effect, or another doubt; inactive means no such curve, though single readings can be large; an effect the other way counts as inactive or inconclusive.
# Screens by letter – A = GLP1R inv ag; B = Pin1 inhibitor; C = miR-21 reporter; D = GLP-1R agonist; E = GLP1R cytotox; F = PTHR1 agonist
CCOc1ccccc1CN1CCN(Cc2cc3ccccc3[nH]2)CC1CCO (stereo not given)
  A = 10µM* | B = 7% | C = -25% | D = 13% | E = -25% | F = i
CCCN1CNc2c(c(=O)[nH]c(=S)n2CCc2c(Cl)cccc2Cl)C1
  A = / | B = -11% | C = / | D = / | E = / | F = /
CC[C@@H](C)[C@H](CN[C@H](CNC)C(C)C)NC[C@@H](C)c1ccc(CC(C)C)cc1
  A = ? | B = 0% | C = ? | D = 0% | E = 11µM* | F = 14%
COc1cc(/C=N/NC(=O)c2ccccc2O)ccc1OCC(=O)Nc1ccccc1
  A = -13% | B = ? | C = -32% | D = 2% | E = -14% | F = i
O=C(COc1ccc(/C=N/NC(=O)c2cc3ccccc3o2)cc1Cl)Nc1ccccc1
  A = 4.5µM* | B = 80% | C = -39% | D = -1% | E = ? | F = -4%
COc1cccc(OCc2cc(C(=O)N(Cc3ccccc3)CC3CC3)no2)c1
  A = 8.9µM* | B = -2% | C = 2% | D = 9% | E = -4% | F = -29%
Cc1[nH]c2ccccc2c1/C=N/NC(=O)c1cccc(S(=O)(=O)Nc2cccc(C(F)(F)F)c2)c1
  A = 13µM* | B = 22% | C = 2% | D = 0% | E = ? | F = -71%
O=C(Nc1ccncc1)Nc1cccc(C(F)(F)F)c1
  A = 10µM* | B = 0% | C = 24% | D = -3% | E = -16% | F = i
O=C(Nc1ccc(OC(F)F)cc1)Nc1cccc(C(F)(F)F)c1
  A = 4.5µM* | B = -1% | C = ? | D = -5% | E = ? | F = -27%
O=C(Nc1ccc(OC(F)(F)F)cc1)Nc1cccc([N+](=O)[O-])c1
  A = 2.5µM* | B = 5% | C = 14% | D = -15% | E = 5.6µM* | F = -35%
O=C(Nc1ccc([N+](=O)[O-])cc1)C(=O)Nc1cccc(C(=O)O)c1
  A = 1.1µM* | B = 2% | C = 26% | D = -15% | E = -15% | F = -56%
CCn1cc2nc(SCC(=O)Nc3ccccc3C(F)(F)F)n(Cc3ccc(C)cc3)c(=O)c2n1
  A = ? | B = 129% | C = 21% | D = 4% | E = ? | F = i
C=C[C@@]1(C)CC(=O)[C@]2(O)[C@@]3(C)[C@@H](O)CCC(C)(C)[C@@H]3[C@H](OC(C)=O)[C@H](O)[C@@]2(C)O1
  A = 167% | B = -10% | C = / | D = 7.9µM* | E = -11% | F = ?
C=C[C@@]1(C)CC(=O)[C@]2(O)[C@@]3(C)[C@@H](O)CCC(C)(C)[C@@H]3[C@H](O)[C@H](OC(C)=O)[C@@]2(C)O1
  A = 37% | B = -8% | C = / | D = 1.3µM* | E = 3% | F = ?
C=C1C(=O)O[C@H]2C[C@]3(C)C([C@@H](OC(=O)/C(C)=C/C)[C@H]12)[C@](C)(O)CC[C@H]3O (stereo not given in full)
  A = 4% | B = 5% | C = 16% | D = -6% | E = 3% | F = -14%

# The closing 4 records of the section before open the next one.
# Screens by letter – A = GLP1R inv ag; B = Pin1 inhibitor; C = miR-21 reporter; D = GLP-1R agonist; E = GLP1R cytotox; F = PTHR1 agonist
CCn1cc2nc(SCC(=O)Nc3ccccc3C(F)(F)F)n(Cc3ccc(C)cc3)c(=O)c2n1
  A = ? | B = 129% | C = 21% | D = 4% | E = ? | F = i
C=C[C@@]1(C)CC(=O)[C@]2(O)[C@@]3(C)[C@@H](O)CCC(C)(C)[C@@H]3[C@H](OC(C)=O)[C@H](O)[C@@]2(C)O1
  A = 167% | B = -10% | C = / | D = 7.9µM* | E = -11% | F = ?
C=C[C@@]1(C)CC(=O)[C@]2(O)[C@@]3(C)[C@@H](O)CCC(C)(C)[C@@H]3[C@H](O)[C@H](OC(C)=O)[C@@]2(C)O1
  A = 37% | B = -8% | C = / | D = 1.3µM* | E = 3% | F = ?
C=C1C(=O)O[C@H]2C[C@]3(C)C([C@@H](OC(=O)/C(C)=C/C)[C@H]12)[C@](C)(O)CC[C@H]3O (stereo not given in full)
  A = 4% | B = 5% | C = 16% | D = -6% | E = 3% | F = -14%
CCOC(=O)C(=NC(C)CC)NNc1ccc(Br)cc1 (stereo not given)
  A = 2.5µM* | B = 0% | C = -18% | D = 16% | E = -11% | F = -18%
CC(=O)c1cc(-c2ccccc2)n(CCC(=O)Nc2cc(C)cc(C)c2)c1C
  A = ? | B = 6% | C = 20% | D = / | E = -28% | F = -5%
CC1(C)c2ccccc2N2CC(=O)N[C@@]21/C=C/C=C/c1ccccc1
  A = 3.5µM* | B = -9% | C = 12% | D = -2% | E = -9% | F = -28%
Cc1ccc(NS(=O)(=O)c2cc3c(cc2-c2ccco2)NC(=O)CO3)cc1C
  A = / | B = 5% | C = / | D = / | E = / | F = /
NNC(=O)c1cccc(COc2ccc3c(c2)CCC3)c1
  A = 1.1µM* | B = 0% | C = -62% | D = -6% | E = -9% | F = -14%
Cc1cc(C)n(CCCN2CCC(C(=O)Nc3cccc(-c4cccc(F)c4)c3)CC2)n1
  A = 7.1µM* | B = -1% | C = 22% | D = -8% | E = ? | F = 10%
CCn1ncc(CN2CCC(C(=O)Nc3cccc(-c4cccc(F)c4)c3)CC2)c1C
  A = 5% | B = 6% | C = -7% | D = -3% | E = 5% | F = -1%
CCOC(=O)Cn1nc(-c2ccccc2)ccc1=O
  A = 0% | B = 4% | C = -17% | D = 4% | E = 2% | F = -18%[57.5 µM]
CCOC(=O)Cn1nc(-c2ccc(F)cc2)cc(Cc2ccccc2)c1=O
  A = 11µM* | B = 3% | C = -8% | D = 20% | E = 32% | F = i
O=C(COc1cccc(C(F)(F)F)c1)Nc1ccccc1N1CCCCC1
  A = 7% | B = 2% | C = / | D = -17% | E = -4% | F = -11%
CSCCC(NS(=O)(=O)c1cccc(C(F)(F)F)c1)C(=O)Nc1ccccc1N1CCCC1 (stereo not given)
  A = 10µM* | B = ? | C = / | D = -16% | E = -16% | F = -44%
CCOC(=O)c1cnc(-n2nc(C)cc2C)nc1NCc1ccc2c(c1)OCO2
  A = 3.5µM* | B = 11% | C = 2% | D = -2% | E = ? | F = i
CCOC(=O)c1cnc(-n2nc(C)cc2C)nc1NC1CCCC1
  A = 2.5µM* | B = -4% | C = ? | D = 17% | E = ? | F = -27%
COc1cccc(NCc2cc(=O)oc3cc(C)c(C(C)C)cc23)c1
  A = 11µM* | B = 0% | C = 4% | D = 17% | E = -18% | F = -44%
COc1ccc(C2=Nn3c(nnc3-c3ccc(OC)cc3OC)SC2)cc1
  A = / | B = 0% | C = / | D = / | E = / | F = /
CC(=O)N1CCN(CC(=O)Nc2ccc(C)c(S(=O)(=O)N(C)C)c2)CC1
  A = 4% | B = -3% | C = 0% | D = 0% | E = 2% | F = i
Cc1ccc(NC(=O)CN2CCC(Cc3ccccc3)CC2)cc1S(=O)(=O)N(C)C
  A = 8.9µM* | B = ? | C = 10% | D = -3% | E = -13% | F = -37%
CC(NCC(O)COc1ccc(Br)cc1)c1ccccc1 (stereo not given)
  A = ? | B = -2% | C = 5% | D = 1% | E = -14% | F = -9%
COC(=O)c1ccc(OCC(O)CNC2CCCC2)cc1 (stereo not given)
  A = ? | B = -1% | C = -5% | D = 11% | E = -15% | F = -1%
Cc1cc(OCC(O)CNC(C)c2ccccc2)ccc1C(C)C (stereo not given)
  A = ? | B = -5% | C = ? | D = -5% | E = ? | F = i
COc1ccc(OCC(O)CNC(C)c2ccccc2)cc1 (stereo not given)
  A = -24% | B = -8% | C = -2% | D = 3% | E = 4% | F = i
OC(CNC1CCCC1)COc1ccc(-c2ccccc2)cc1 (stereo not given)
  A = 8.9µM* | B = 2% | C = -20% | D = 1% | E = 10% | F = -31%
CCCC(NCC(O)COc1ccc(-c2ccccc2)cc1)c1ccccc1 (stereo not given)
  A = 13µM* | B = -3% | C = 7% | D = -6% | E = ? | F = -32%
CC(NCC(O)COc1ccc2ccccc2c1)c1ccccc1 (stereo not given)
  A = 2.8µM* | B = -18% | C = 5% | D = 10% | E = ? | F = -8%
CC(NCC(O)COC1CCC(C(C)(C)C)CC1)c1ccccc1 (stereo not given)
  A = 10µM* | B = -1% | C = ? | D = 3% | E = ? | F = -7%
CCCC[C@]12Cc3ccccc3C(O1)c1c(cc(-c3ccccc3)oc1=O)O2
  A = / | B = / | C = 18%[7.66 µM] | D = / | E = / | F = /
